Molecular target: human recombinant Btk (Homo sapiens, UniProt Q06187)
Test: Btk Enzymatic Activity Assay (Caliper-based kinase assay)
Type: biochemical

Sequences of proteins named here, by UniProt entry; tags and fusion partners are left off. A change or cut given only in a name is not applied to a line headed by its entry.
UniProt Q06187: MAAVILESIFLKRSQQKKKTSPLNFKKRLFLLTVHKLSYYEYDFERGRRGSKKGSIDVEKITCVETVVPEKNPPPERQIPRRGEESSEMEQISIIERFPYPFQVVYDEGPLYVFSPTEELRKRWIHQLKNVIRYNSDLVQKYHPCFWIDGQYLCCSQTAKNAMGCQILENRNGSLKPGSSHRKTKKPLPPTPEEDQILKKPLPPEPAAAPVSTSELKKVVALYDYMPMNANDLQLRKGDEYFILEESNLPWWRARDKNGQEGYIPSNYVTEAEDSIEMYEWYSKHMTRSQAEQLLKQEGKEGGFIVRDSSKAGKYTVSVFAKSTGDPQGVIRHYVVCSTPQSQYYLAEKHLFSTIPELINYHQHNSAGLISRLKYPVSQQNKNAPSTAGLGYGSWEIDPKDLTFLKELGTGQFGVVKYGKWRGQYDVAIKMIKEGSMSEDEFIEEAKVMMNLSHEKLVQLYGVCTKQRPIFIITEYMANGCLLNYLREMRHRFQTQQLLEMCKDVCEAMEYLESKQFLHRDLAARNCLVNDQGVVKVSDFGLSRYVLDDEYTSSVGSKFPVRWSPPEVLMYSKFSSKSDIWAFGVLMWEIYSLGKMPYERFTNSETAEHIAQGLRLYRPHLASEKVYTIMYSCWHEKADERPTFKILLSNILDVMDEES

(R)-2-(3-(4-amino-3-(4-(2,3-difluorophenoxy)phenyl)-1H-pyrazolo[3,4-d]pyrimidin-1-yl)piperidine-1-carbonyl)-3-cyclopropylacrylamide [Cpd 35A]
IC50: 4.4 nM

(R)-2-(3-(4-amino-3-(4-(2,6-difluorophenoxy)phenyl)-1H-pyrazolo[3,4-d]pyrimidin-1-yl)piperidine-1-carbonyl)-3-cyclopropylacrylamide [Cpd 36A]
IC50: 4.3 nM

Reference: patent US20160045503A1, “FORMULATIONS CONTAINING REVERSIBLE COVALENT COMPOUNDS” (PRINCIPIA BIOPHARMA INC., priority 2012, published 2016)
